# In ChEMBL document CHEMBL1144950, “Structure--activity relationships of azasugar-based MMP/ADAM inhibitors” (Bioorg Med Chem Lett, 2003):
# Sequences of proteins named here, by UniProt entry; tags and fusion partners are left off. A change or cut given only in a name is not applied to a line headed by its entry.
# UniProt P78536: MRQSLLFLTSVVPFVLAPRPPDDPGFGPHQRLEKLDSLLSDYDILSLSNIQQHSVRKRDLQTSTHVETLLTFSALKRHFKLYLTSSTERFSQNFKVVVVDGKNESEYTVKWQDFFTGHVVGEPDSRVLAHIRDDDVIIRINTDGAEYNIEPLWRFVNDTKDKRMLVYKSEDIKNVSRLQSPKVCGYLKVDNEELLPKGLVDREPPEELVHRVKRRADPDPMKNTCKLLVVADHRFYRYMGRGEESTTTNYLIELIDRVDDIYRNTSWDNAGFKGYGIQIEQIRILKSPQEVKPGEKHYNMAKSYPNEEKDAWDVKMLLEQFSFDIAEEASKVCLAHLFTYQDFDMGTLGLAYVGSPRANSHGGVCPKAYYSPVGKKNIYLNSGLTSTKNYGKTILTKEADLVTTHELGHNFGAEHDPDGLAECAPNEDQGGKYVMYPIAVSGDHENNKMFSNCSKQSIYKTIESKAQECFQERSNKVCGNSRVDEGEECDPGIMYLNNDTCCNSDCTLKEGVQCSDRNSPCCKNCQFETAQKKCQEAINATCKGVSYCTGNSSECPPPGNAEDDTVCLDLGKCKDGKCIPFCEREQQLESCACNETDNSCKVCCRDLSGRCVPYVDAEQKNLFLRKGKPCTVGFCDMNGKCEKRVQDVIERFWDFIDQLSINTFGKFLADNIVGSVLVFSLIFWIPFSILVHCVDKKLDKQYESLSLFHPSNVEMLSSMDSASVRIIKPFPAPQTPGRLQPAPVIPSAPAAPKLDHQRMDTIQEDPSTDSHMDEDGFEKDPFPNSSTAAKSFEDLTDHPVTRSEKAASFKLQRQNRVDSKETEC
# Target: Disintegrin and metalloproteinase domain-containing protein 17 (Homo sapiens, UniProt P78536)
# Test: Inhibition of recombinant human TNF-alpha converting enzyme (TACE)
structure (smiles),measurement,value
CNC(=O)[C@@H](NC(=O)[C@H](CC(C)C)[C@H](O)C(=O)NO)C(C)(C)C,Ki,0.4 nM
